scFv variants of Ab-95 (light chain) against a SARS-CoV-2 spike peptide

Binding partner: SARS-CoV-2 spike HR2 peptide, sequence PDVDLGDISGINAS.

Parent scFv Ab-95: VH joined to VL by a (GGGGS)3 linker. Changes lie in the light chain CDRs alone.
VH: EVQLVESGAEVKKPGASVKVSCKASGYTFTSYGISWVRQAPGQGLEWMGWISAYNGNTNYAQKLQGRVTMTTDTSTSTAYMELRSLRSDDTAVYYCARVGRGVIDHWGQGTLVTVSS
VL: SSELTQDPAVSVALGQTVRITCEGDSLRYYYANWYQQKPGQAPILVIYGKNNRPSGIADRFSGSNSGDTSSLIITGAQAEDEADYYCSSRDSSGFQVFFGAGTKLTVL

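Phage display of a naive human antibody library on the peptide gave the parent. Library AAYL52 holds single substitutions and randomly drawn double and triple substitutions in the CDRs. The scFvs were displayed on barcoded MATa yeast, the peptide on MATalpha yeast. The frequency of each diploid, read from paired DNA barcodes, reflects how well the two displayed proteins bind. The ratio of observed to expected reads was calibrated, replicate by replicate, on BCL2-family standards whose Kd was known from biolayer interferometry. Each pool was mated in three replicate cultures.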

The parent's light chain CDRs are EGDSLRYYYAN, GKNNRPS, SSRDSSGFQVF; each variant's own CDRs replace them letter for letter. Numbers give log10(Kd / nM), so 0 is 1 nM and 3 is 1 µM. Smaller is tighter. An entry "ND" has no value in the source: the pair was not observed among the diploids in that replicate. This suggests poor binding but is not conclusive.

CDR-L1 | CDR-L2 | CDR-L3 | log10 Kd (nM) by replicate | empty controls
EGHSLRYYYAN | GKNNRPS | SSRQSSGFQVF | 4.14 / 4.62 / 2.38 | 2 of 9 (3.55)
EGDSLRYYYAN | GKNNLPS | SSRDSSGSQVF | 3.17 / 2.04 / ND | 2 of 9 (4.11)
EGDSLRYYYAN | GKNNRPS | SSRRSSGFHVF | 2.74 / 2.42 / 2.19 | 4 of 9 (3.00)
EGDSLRYYYAN | GKNNTPS | SSKDSSGKQVF | ND / 3.99 / 4.25 | 6 of 9 (4.15)
EGDSLRYYYHN | GKNNRPS | SSRDASGFQVT | ND / ND / 4.44 | 1 of 9 (4.25)
EGDSLTYYYAN | GKNYRPS | SSRDSSGFQVA | 3.04 / 3.20 / 4.06 | 4 of 9 (3.88)
IGDSWRYYYAN | GWNNRPS | SSRDSSGFQVF | ND / 5.32 / ND | 0 of 9
EGDSLRYYYAN | GKNNRPE | SSRDAEGFQVF | 2.96 / 2.71 / 2.33 | 4 of 9 (3.81)
EGDSLRYYYAN | GKNNRPS | HSPDKSGFQVF | 2.88 / 2.28 / 2.29 | 2 of 9 (3.81)
EGDSLRYYYAN | GKNNRPS | SSRDSSGFQRF | 2.91 / 2.46 / 2.23 | 2 of 9 (4.04)
EGDSLRYYYAN | GKNNRWS | SSPDSSGFAVF | 3.87 / 4.03 / 4.61 | 5 of 9 (3.67)
EGDSLRYYYAN | GVNNRPS | SSLDSSSFQVF | 5.15 / ND / 3.91 | 3 of 9 (3.88)
EGDSLRYYYIN | GKNNRPS | SSRDSSGQQWF | ND / ND / 3.65 | 1 of 9 (3.00)
EGDWLRYYYAN | GKNNRPS | SSEDSSGFQVY | 3.93 / 4.32 / 3.91 | 3 of 9 (3.98)
EGDSLRYYYAC | GTNNNPS | SSRDSSGFQVF | ND / ND / ND | 0 of 9
EGDSLRHYYAN | GKNNRPS | SSRDSSGFQVF | 1.76 / 1.70 / 1.41 | 1 of 9 (4.43)
EGDSLRYYWAN | GKNNRPS | PMRDSSGFQVF | 2.85 / 3.57 / 3.65 | 0 of 9
EGDSLRYNYAN | GTNNRPS | SKRDSSGFQVF | 2.81 / 2.34 / 2.76 | 3 of 9 (3.89)
EKDSKRYYYAN | GKNNRPS | SSRDSSGFQVF | 3.25 / 2.66 / 2.74 | 1 of 9 (4.01)
EGDQLRYYYAN | GKNNRPS | SSRDSSGFQPF | 3.69 / 4.23 / ND | 3 of 9 (4.88)
EGFSLRYYYAN | GKNNRPS | SSADSSGFLVF | 3.27 / 2.79 / 2.66 | 2 of 9 (4.12)
EGDSLRYYYAN | GKHMRPS | SSRDSSHFQVF | 3.09 / 3.49 / 3.15 | 5 of 9 (3.88)
EGFSLRYYYAN | GKNNIPG | SSRDSSGFQVF | 2.83 / 4.09 / ND | 1 of 9 (3.28)
IRDSLRYYYAN | GKNNRPS | SSRDSSGFQVF | 5.47 / 4.30 / 4.58 | 3 of 9 (4.36)
EGDSLRYYYAN | GKNNRPS | SSSDSNGAQVF | 3.02 / 2.75 / ND | 3 of 9 (4.00)
EGDTRRYYYAN | GKNNRPS | SSRDSSGFQVF | ND / ND / ND | 0 of 9
EGDSLRFYYAN | GKNNFPS | ESRDSSGFQVF | ND / ND / ND | 0 of 9
EGKSLRPYGAN | GKNNRPS | SSRDSSGFQVF | 2.04 / 2.43 / 1.79 | 6 of 9 (3.66)
EGDSRRYYYAN | GKNNRGS | SSRDSWGFQVF | 4.70 / ND / 4.72 | 2 of 9 (3.85)
EGDSLRYYYAN | GKNNRPC | SSRDKSGFQVK | 3.39 / 2.85 / 2.79 | 2 of 9 (4.06)
EGDSLRYYQAN | GKNNRIS | SSRDSSGFQSF | ND / 2.57 / 2.16 | 0 of 9
EGDSLRYYYAN | GKNNRMS | SSRDVSGFQRF | 3.75 / 3.38 / 1.97 | 3 of 9 (4.47)
EGDSLRYSYAN | GKNNRPS | SSRDSSGFQVF | 0.92 / 0.73 / 0.34 | 7 of 9 (3.91)
EGDSLRYYYAN | GWNNRPS | SCRDMSGFQVF | 3.85 / 3.81 / 3.68 | 3 of 9 (4.38)
EVDSLRYAYAN | GKNNRPS | SSRDSSGFQVI | 2.97 / 3.02 / ND | 0 of 9
ERDSLRYYYAY | GKNGRPS | SSRDSSGFQVF | 2.93 / 3.97 / 2.69 | 5 of 9 (3.69)
EGDSWRYYYAN | GKNNRPS | SSRDFSGFQVM | 3.80 / ND / 3.29 | 3 of 9 (4.51)
EGDSLRYYEDN | GKNNRPS | QSRDSSGFQVF | ND / ND / ND | 3 of 9 (4.56)
EGDSLRYYYMN | GKLNRPS | SSQDSSGFQVF | ND / ND / ND | 0 of 9
EGDSLRYYYAY | GKNNRPS | SSRWSSGFQYF | 4.18 / ND / ND | 2 of 9 (3.45)
EGDSLRKYYAN | AKNNRPS | SSRESSGFQVF | 3.98 / 4.97 / ND | 6 of 9 (3.74)
EGDSLYYYYAD | FKNNRPS | SSRDSSGFQVF | 3.92 / 5.03 / ND | 6 of 9 (4.23)
EGDSLRYYYAN | GKNNRPS | SCVDSSGFQVY | 3.32 / 3.14 / 3.54 | 4 of 9 (4.11)
EGDSLVYYYAN | GKNNRPS | SSRDSSDFQVY | ND / 4.31 / ND | 1 of 9 (3.90)
EGDSLRYYYNP | GINNRPS | SSRDSSGFQVF | 4.40 / ND / ND | 3 of 9 (3.80)
EGDSLRYYSAP | GNNNRPS | SSRDSSGFQVF | 2.45 / 3.81 / ND | 2 of 9 (3.05)
EGDSLRYYYAN | WKNNRPV | SSVDSSGFQVF | 3.52 / ND / ND | 1 of 9 (3.51)
EIDSLRYYYAN | GKNNRPM | ASRDSSGFQVF | ND / 3.24 / 3.28 | 5 of 9 (4.39)
EGDSLNYGYAN | GKNNRPS | SSRDSSGFQQF | 1.14 / 1.09 / 0.39 | 6 of 9 (4.21)
EGDSLRYYYGN | DKYNRPS | SSRDSSGFQVF | 4.91 / ND / ND | 1 of 9 (4.87)
GGDSLRYYYAN | GKNNRPQ | SSRDSSGVQVF | 2.62 / 3.09 / 2.55 | 4 of 9 (3.80)
EGDSSYYYYAN | GKNNRPS | SSRMSSGFQVF | ND / 4.13 / ND | 4 of 9 (3.51)

Extract of 3 entries:

CDR-L1 | CDR-L2 | CDR-L3 | log10 Kd (nM) by replicate | empty controls
EGDSLRYYYAN | WKNNRPV | SSVDSSGFQVF | 3.52 / ND / ND | 1 of 9 (3.51)
EGDSLRYYYAN | GKNNRPC | SSRDKSGFQVK | 3.39 / 2.85 / 2.79 | 2 of 9 (4.06)
EGDSLRYYSAP | GNNNRPS | SSRDSSGFQVF | 2.45 / 3.81 / ND | 2 of 9 (3.05)

Nonspecific signal, from three strains lacking the peptide, appeared in 28% of pairings of library AAYL52, centred on 3.91 (5% of these signals below 2.90); values are not corrected for it. The control count says in how many pairings with the empty strains this scFv gave a signal, with their mean in brackets.

From the AlphaSeq antibody data of Engelhart et al. 2022 (doi:10.1038/s41597-022-01779-4), copy in the FLAb collection.